Antibody variant affinities, Ab-95 light chain, assay 2

From the AlphaSeq antibody data of Engelhart et al. 2022 (doi:10.1038/s41597-022-01779-4), copy in the FLAb collection.

The target is the same throughout: PDVDLGDISGINAS, from the HR2 region of SARS-CoV-2 spike.

Ab-95 is the parent antibody, in scFv form: VH, then a (GGGGS)3 linker, then VL. The heavy chain is unchanged in all variants.
VH: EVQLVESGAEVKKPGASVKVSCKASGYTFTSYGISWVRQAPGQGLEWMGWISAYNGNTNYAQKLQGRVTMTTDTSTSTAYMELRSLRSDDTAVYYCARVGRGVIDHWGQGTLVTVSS
VL: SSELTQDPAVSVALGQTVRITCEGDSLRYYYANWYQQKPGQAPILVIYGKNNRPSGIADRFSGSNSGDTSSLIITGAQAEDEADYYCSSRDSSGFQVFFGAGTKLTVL

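Phage display of a naive human antibody library on the peptide gave the parent. In library AAYL52, one, two or three CDR residues were substituted; doubles and triples were drawn at random. In AlphaSeq, yeast of one mating type display the scFv and yeast of the other type display the target. Pairs that bind mate more often; barcode pairs of the diploids are counted by sequencing. Scores were corrected for input abundance and mapped to Kd with protein pairs of known affinity run in the same pool. There are three technical replicates.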

Substitutions are numbered in sequence along the VL above, starting at 1 (not Kabat).
Numbers give log10(Kd / nM), so 0 is 1 nM and 3 is 1 µM. Smaller is tighter.
"ND" marks a missing value. The strain was present, yet no cells mated with the target were sequenced in that replicate, which points to weak or no binding.
Empty control strains, which show no peptide, gave a signal in 28% of pairings with library AAYL52; the median was 3.91 and 95% of these signals were weaker than 2.90. No background was subtracted. For each scFv, signals with the empty controls are counted beside the result.

The variant Y29Q/P54W/G94Y gave ND, ND, ND (controls 1 of 9).
The variant G24K/D25F/S88Y gave ND, ND, ND (controls 2 of 9).
The variant R53T/R90N gave 3.54, 2.99, 2.55 (controls 2 of 9).
The variant A32F/S55C/G94D gave ND, 4.52, ND (controls 4 of 9).
The variant D25T/A32K gave 2.35, 2.88, 1.93 (controls 4 of 9).
The variant N33V/N51Q/V97E gave 4.28, 4.78, ND (controls 3 of 9).
The variant G49Q/R90Q/G94T gave 3.84, 4.53, ND (controls 3 of 9).
The variant S26K/Y30C/F95A gave ND, 3.17, ND (controls 0 of 9).
The variant G24C/R53V/Q96I gave 3.91, ND, ND (controls 2 of 9).
The variant G24N/N51Y/S55W gave 4.31, 3.02, ND (controls 5 of 9).
The variant S26L/P54Y/G94E gave ND, ND, ND (controls 0 of 9).
The variant R28Y/S55C/S88C gave 3.05, 5.06, 4.61 (controls 4 of 9).
The variant N51P/N52F/S88V gave 4.03, ND, ND (controls 0 of 9).
The variant Y31R/D91I/F95D gave ND, ND, ND (controls 1 of 9).
The variant G49S/S89T/F95T gave 3.19, 2.81, 3.35 (controls 2 of 9).
The variant G24A/L27S/Q96H gave 3.31, 3.54, 3.30 (controls 6 of 9).
The variant S88I/S89E/F98M gave 2.58, 2.13, 3.11 (controls 4 of 9).
The variant S89D/D91N/G94Q gave 2.42, 2.44, 2.62 (controls 0 of 9).
The variant A32E/G49D/G94S gave 4.44, ND, 3.05 (controls 2 of 9).
The variant K50F/F95K gave 2.90, 3.24, 3.44 (controls 3 of 9).
The variant Y30C/G49N/S55T gave 2.75, 2.81, 2.35 (controls 1 of 9).
The variant K50W/N52Y/F98Y gave ND, ND, ND (controls 2 of 9).
The variant S89Q/G94E/F95E gave 3.40, 2.69, 2.11 (controls 2 of 9).
The variant N52V/S89V/V97S gave 4.30, 4.70, 4.83 (controls 4 of 9).
The variant Y30R/N52Q/P54N gave 1.28, 1.29, 1.00 (controls 4 of 9).
The variant G49C/S88F/Q96M gave ND, ND, ND (controls 2 of 9).
The variant K50F/G94D/F95V gave 3.44, 3.54, 4.22 (controls 5 of 9).
The variant A32D/S93I gave ND, ND, ND (controls 2 of 9).
The variant A32Y/S89G/R90L gave ND, ND, ND (controls 0 of 9).
The variant R28E/R53K/S92C gave 2.64, 3.11, 2.57 (controls 2 of 9).
The variant P54R/G94C/Q96E gave ND, ND, ND (controls 0 of 9).
The variant Y30V/N51F/D91K gave 5.00, ND, ND (controls 1 of 9).
The variant N51T/S89G/G94R gave 3.39, 2.58, ND (controls 2 of 9).
The variant S26H/P54T/V97D gave 4.37, 3.19, ND (controls 3 of 9).
The variant Y30H/S55A/S93G gave 1.65, 1.51, 1.16 (controls 2 of 9).
The variant R28Q/N52E/Q96V gave 2.75, 3.27, 2.26 (controls 2 of 9).
The variant D25G/S88E/V97P gave 3.25, 2.54, 2.05 (controls 3 of 9).
The variant S55V/G94P/Q96T gave 3.05, 2.44, 2.92 (controls 3 of 9).
The variant S55V/S93N/V97R gave 2.65, 2.44, 3.19 (controls 2 of 9).
The variant N33W/G49V/F98M gave ND, 5.17, ND (controls 2 of 9).
The variant D25Y/A32T/N52Y gave 2.83, 2.60, 2.25 (controls 6 of 9).
The variant S88L/Q96R gave 2.66, 2.18, 2.62 (controls 1 of 9).
The variant S89F/S92R/V97N gave 2.55, 3.28, 1.94 (controls 0 of 9).
The variant Y29N/A32V/G49E gave 3.78, ND, ND (controls 3 of 9).
The variant S26Q/R28A/Y31G gave 1.65, 1.62, 1.19 (controls 3 of 9).

Repeated from above, the 7 best binders with a signal in all replicates:

changes	log10 Kd, replicates	signal with controls
Y30R/N52Q/P54N	1.28, 1.29, 1.00	4/9
Y30H/S55A/S93G	1.65, 1.51, 1.16	2/9
S26Q/R28A/Y31G	1.65, 1.62, 1.19	3/9
D25T/A32K	2.35, 2.88, 1.93	4/9
S88L/Q96R	2.66, 2.18, 2.62	1/9
S89D/D91N/G94Q	2.42, 2.44, 2.62	0/9
D25Y/A32T/N52Y	2.83, 2.60, 2.25	6/9